# Test results reported in the supplement of paper PMC12582362.
# What follows is the remainder of the data, with few or none of the hits.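 Rule for the calls: active = robust z-score below -2; a few such results were not called.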
# System: optoTopBP1 Flp-In 293 T-REx (HEK293) cells
# Experiment: light-induced TopBP1 condensate (nuclear foci) count, plate-normalised robust z-score vs non-control wells; higher = more TopBP1 condensates (negative = condensation inhibitor), active = hit call of the paper
# Conditions: 10 µM; incubation time 2 h
row,Compound,light-induced TopBP1 condensate (z-score)
1,COc1cc(Br)c(C[N+]2(CCOCCC3CCC4CC3C4(C)C)CCOCC2)cc1OC (stereo unspecified) [Pinaverium bromide],inactive: 0.303
